Our source for the EC50 values is publication PMC9282716 (Cell reports, 2022).

Chains of the proteins cited; added tags and fusions are not shown. Lines headed by an entry give the natural chain unless they say otherwise; changes in a name come on top.
UniProt P43116: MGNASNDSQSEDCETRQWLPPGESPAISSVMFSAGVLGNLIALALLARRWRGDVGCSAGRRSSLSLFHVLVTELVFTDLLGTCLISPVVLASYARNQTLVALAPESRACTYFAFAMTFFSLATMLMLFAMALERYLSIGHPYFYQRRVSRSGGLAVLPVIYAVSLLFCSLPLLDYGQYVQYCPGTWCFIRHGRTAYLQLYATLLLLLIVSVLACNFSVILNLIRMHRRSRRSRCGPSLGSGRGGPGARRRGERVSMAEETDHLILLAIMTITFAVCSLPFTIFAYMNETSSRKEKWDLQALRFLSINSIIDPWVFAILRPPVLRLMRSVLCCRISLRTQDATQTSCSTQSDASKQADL

Assay [1] concerns the target T1, EP2 receptor (Homo sapiens, UniProt P43116). In words: cell-based.
Assay [2] deals with T1, EP2 receptor. Nature of the assay: Cell-based TR-FRET cAMP assay in BE.

For `CCCCC[C@H](O)/C=C/[C@H]1[C@H](O)CC(=O)[C@@H]1C/C=C\CCCC(=O)O` [PGE2, Prostaglandin E2], the EC50 came out at 21 nM at EP2 receptor [1] (PGE2 EC50 for cAMP), 40 nM on EP2 receptor [1] (agonist EC50 for cAMP induction) and 40 nM at EP2 receptor [2].
